Measurements as given in patent US20230256110A1, “COMBINATION OF ANTIBODY-DRUG CONJUGATE AND ATM INHIBITOR” (AstraZeneca UK Limited, priority 2020, published 2023).

Experiments:
Format in all cases: cell-based
[1] = test system: DU145-SLFN11 KO (CRISPR-Cas9 gene knockout of SLFN11); assay: Growth inhibition by total cell (nuclear) count, 96-well imaging; details: monotherapy, prostate, HER2 Low, 4 to 8 days
Method: (§1) Cells grown in their respective conditions were plated in 96-well plates at optimal density to allow linear proliferation for the duration of the assay (4 to 8 days; duration of treatment is dependent on the growth rate of each cell line). Immediately after plating, the cells were dosed with the indicated compounds for a total volume of 200 μL/well and placed in the incubator. Combinations were conducted as a 6×8 concentration response matrix for each combination. At the endpoint, the cells were fixed in 2% PFA for 20 minutes at room temperature. In order to obtain the number of cells at the start of treatment, one additional plate was used for each experiment and fixed after cells attached. The cells were then permeabilised in 0.5% Triton-X100 in PBS for 10 minutes. After a PBS wash, the cells were blocked in 5% FBS in PBS 1 h at RT and incubated with primary antibodies in 5% FBS+0.05% triton overnight at 4° C. After 3 washes in PBS cells were incubated with secondary antibodies in 5% FBS+0.05% triton with Hoechst33258 for 1 h at room temperature. After 3 washes in PBS, the cells were scanned with a Cellinsight instrument with a 10×objective and 9 fields/well. Images were analysed using Columbus for cell count based on nuclear Hoechst staining and nuclear intensity of other biomarkers investigated. The total cell count/well was used to calculate the relative growth in each well compared to solvent control. […] The mean/well of the sum of the nuclear intensity of the IF biomarkers was also expressed relative to solvent control.

SK-OV-3 cell line = assay: as above; details: monotherapy; SK-OV-3, ovarian, HER2 Moderate; 4 to 8 days
Method: as §1

KPL4 cell line = assay: as above; details: monotherapy; KPL4, breast, HER2 High; 4 to 8 days
Method: as §1

DU145 cell line = assay: as above; details: monotherapy; DU145, prostate, HER2 Low; 4 to 8 days
Method: as §1

MDA-MB-468 cell line = assay: as above; details: monotherapy; MDA-MB-468, breast, HER2 Low; 4 to 8 days
Method: as §1

JIMT-1 cell line = assay: as above; details: monotherapy; JIMT-1, breast, HER2 Expressed; 4 to 8 days
Method: as §1

NCI-N87 cell line = assay: as above; details: monotherapy; NCI-N87, gastric, HER2 High; 4 to 8 days
Method: as §1

ATM signaling = assay: Inhibition of ATM signaling, antibody blots of whole-cell extracts; details: Her2-high NCI-N87 and KPL4; DS-8201 at 30 μg/mL or exatecan mesylate alone
Method: Gastric cancer NCI-N87 and breast carcinoma KPL4 cell lines were cultured in RPMI 1640 supplemented with 10% FCS in a humidified incubator at 37° C. with 5% CO2. Cells were plated in 6-well plates at optimal density to allow linear proliferation for the duration of the assay. […] 7 h, 24 h or 48 h after dosing, whole-cell extracts were obtained by lysis in 50 mM Tris-HCl pH 7.5, 2% SDS containing protease and phosphatase inhibitors. Lysates were boiled for 5 minutes at 95° C. Protein concentration was measured using a Nanodrop at […] and 50 μg of lysate were loaded in 4-12% Bis Tris gels. Proteins were transferred using iblot2. Primary antibodies (see Table 7) were incubated overnight at 4° C. in 3% milk TBS-tween 0.05% and HRP-conjugated secondary antibodies for 1 h at room temperature. Blots were imaged using a G-box.

KAP1 pSer824, γH2AX = assay: Immunofluorescence biomarkers of ATM activation and DNA damage in KPL4 cells; details: high-HER2 KPL4
Method: Cells grown in their respective conditions were plated in 96-well plates at optimal density to allow linear proliferation for the duration of the assay (4 to 8 days; duration of treatment is dependent on the growth rate of each cell line). Immediately after plating, the cells were dosed with the indicated compounds for a total volume of 200 μL/well and placed in the incubator. Combinations were conducted as a 6×8 concentration response matrix for each combination. At the endpoint, the cells were fixed in 2% PFA for 20 minutes at room temperature. In order to obtain the number of cells at the start of treatment, one additional plate was used for each experiment and fixed after cells attached. The cells were then permeabilised in 0.5% Triton-X100 in PBS for 10 minutes. After a PBS wash, the cells were blocked in 5% FBS in PBS 1 h at RT and incubated with primary antibodies in 5% FBS+0.05% triton overnight at 4° C. After 3 washes in PBS cells were incubated with secondary antibodies in 5% FBS+0.05% triton with Hoechst33258 for 1 h at room temperature. […] Images were analysed using Columbus for cell count based on nuclear Hoechst staining and nuclear intensity of other biomarkers investigated. […] To calculate the synergy scores, the growth inhibition data were analysed using Combenefit software (Di Veroli G Y et al., Bioinformatics 2016, 32(18), 2866-8). […]

## DS-8201: anti-HER2 antibody-drug conjugate, exatecan-derivative drug-linker conjugated to anti-HER2 antibody via thioether bond; DAR 7.7 or 7.8
[1]
  GI50: 17.08 µg/mL
SK-OV-3 cell line
  GI50: 4.674 µg/mL
KPL4 cell line
  GI50: 0.044 µg/mL
DU145 cell line
  GI50: 18.361 µg/mL
MDA-MB-468 cell line
  GI50: 3.367 µg/mL
JIMT-1 cell line
  GI50: 22.609 µg/mL
NCI-N87 cell line
  GI50: 0.019 µg/mL
ATM signaling
  activation of the ATM pathway (pATM-S1981, pChk2-T68, pKap1-S824): induced activation of the ATM pathway
KAP1 pSer824, γH2AX
  biomarkers of ATM (KAP1 pSer824) activation and DNA strand breaks (yH2AX): induced in a concentration dependent manner
